Biological target: Ube2T (UniProt Q9NPD8)
Assay: co-IP with anti-GFP, immunoblot
Details: reference: wild-type GFP-RACK1, with or without TNF-α; sites S110

“RACK1 (from UniProt P68040) S110A GFP-RACK1” was tested. Which “binding against the reference” value did it give?
Its value is “weaker”.
